Experimental data taken from PubChem BioAssay (Tox21).
This is a selection; strong and weak results do not stand in their true shares. Records with an inconclusive call do not appear. Calls of active or inactive are those of the source. Unless noted, calls come from the whole dose curve; as a rule, active = well fitted inhibition curve with a large enough effect in the repeat runs; inconclusive = weak or mixed curves; inactive = flat fitted curve, though single readings scatter.

Protein sequences, listed by entry. Tags and fused reporters are not part of them. Lines headed by an entry give the natural chain unless they say otherwise; changes in a name come on top.
UniProt P08659, whole entry, looked up: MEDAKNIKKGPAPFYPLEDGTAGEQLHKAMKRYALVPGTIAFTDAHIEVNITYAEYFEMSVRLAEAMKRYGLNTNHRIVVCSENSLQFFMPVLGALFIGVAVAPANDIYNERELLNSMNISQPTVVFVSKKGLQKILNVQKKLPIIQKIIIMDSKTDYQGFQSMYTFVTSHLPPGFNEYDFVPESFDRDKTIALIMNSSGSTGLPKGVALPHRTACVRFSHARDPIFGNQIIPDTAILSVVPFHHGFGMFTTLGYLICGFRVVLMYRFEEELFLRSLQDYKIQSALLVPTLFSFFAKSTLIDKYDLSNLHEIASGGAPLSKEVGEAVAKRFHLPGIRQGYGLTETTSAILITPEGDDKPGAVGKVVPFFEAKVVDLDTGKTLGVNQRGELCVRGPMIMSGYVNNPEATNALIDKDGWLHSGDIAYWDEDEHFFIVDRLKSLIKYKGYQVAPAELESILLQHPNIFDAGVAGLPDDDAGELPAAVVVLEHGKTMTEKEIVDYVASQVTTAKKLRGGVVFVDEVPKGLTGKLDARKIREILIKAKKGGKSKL
UniProt Q12809: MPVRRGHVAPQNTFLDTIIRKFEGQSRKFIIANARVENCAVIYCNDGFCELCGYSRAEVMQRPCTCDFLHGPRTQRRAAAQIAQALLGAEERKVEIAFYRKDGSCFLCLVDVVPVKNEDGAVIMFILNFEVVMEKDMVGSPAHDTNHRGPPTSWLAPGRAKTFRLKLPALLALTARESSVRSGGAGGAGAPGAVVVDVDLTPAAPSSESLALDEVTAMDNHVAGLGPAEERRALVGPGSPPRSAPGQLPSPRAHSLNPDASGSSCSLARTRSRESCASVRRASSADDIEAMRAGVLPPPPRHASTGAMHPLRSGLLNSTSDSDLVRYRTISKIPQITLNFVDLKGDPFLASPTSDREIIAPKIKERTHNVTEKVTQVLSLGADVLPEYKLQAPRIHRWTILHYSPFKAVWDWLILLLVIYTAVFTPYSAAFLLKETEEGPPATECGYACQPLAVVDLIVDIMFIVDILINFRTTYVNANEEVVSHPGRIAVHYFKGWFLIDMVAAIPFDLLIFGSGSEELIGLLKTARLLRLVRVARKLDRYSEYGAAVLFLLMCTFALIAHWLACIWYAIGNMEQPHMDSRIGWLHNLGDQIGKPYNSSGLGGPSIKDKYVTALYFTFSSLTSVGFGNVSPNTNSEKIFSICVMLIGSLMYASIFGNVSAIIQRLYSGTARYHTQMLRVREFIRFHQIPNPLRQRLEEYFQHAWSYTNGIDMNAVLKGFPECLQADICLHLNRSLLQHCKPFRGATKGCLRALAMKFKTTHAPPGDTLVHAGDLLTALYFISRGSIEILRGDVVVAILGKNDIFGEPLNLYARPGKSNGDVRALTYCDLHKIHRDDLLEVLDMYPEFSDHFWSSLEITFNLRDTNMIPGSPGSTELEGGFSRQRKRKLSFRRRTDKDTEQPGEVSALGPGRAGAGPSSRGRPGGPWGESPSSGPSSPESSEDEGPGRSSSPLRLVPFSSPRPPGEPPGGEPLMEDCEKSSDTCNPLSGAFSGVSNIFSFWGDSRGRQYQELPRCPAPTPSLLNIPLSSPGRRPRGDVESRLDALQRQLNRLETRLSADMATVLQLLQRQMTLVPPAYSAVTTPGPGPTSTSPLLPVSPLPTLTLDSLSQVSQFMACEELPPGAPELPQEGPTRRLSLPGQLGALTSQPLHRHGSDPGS

What was measured:
[1] = qHTS assay to identify small molecule agonists of the NFkB signaling pathway (AID 1159509; active = well fitted curve in the direction sought with a large enough effect in the signal ratio in the repeat runs, not every such curve was filed as active; the % refers to the signal ratio; note: % is set by controls: 0 for no effect and ±100 for the full control effect); details: NFkB-bla ME-180 cells, beta-lactamase FRET ratio, 5 h
In short: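 Pathway activation was measured in ME-180 cells stably expressing beta-lactamase under NF-kB response element control. Substrate cleavage was read as the 460/530 nm emission shift after 5 hr compound incubation.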

[2] = target: Luciferin 4-monooxygenase (Photinus pyralis) (UniProt P08659); assay: qHTS assay to identify small molecule inhibitors of firefly luciferase (AID 1224835); note: potency is the fitted concentration of half-maximal effect; nearly all actives have a fitted effect of over 25% in size; details: purified P. pyralis luciferase, luminescence inhibition
Excerpt: U.S. Tox21 Program National Center for Advancing Translational Sciences [NCATS] NIH Chemical Genomics Center [NCGC] U.S. Environmental Protection Agency [EPA] National Institutes of Environmental Health Sciences [NIEHS] National Toxicology Program [NTP] U.S. Food and Drug Administration [FDA] Tox21 Assay Overview: Firefly (Photinus pyralis) luciferase is one of the most commonly used transcriptional reporters. Firefly luciferase reporter-gene assays are generally considered one of the most sensitive assay types (Wood, 1995; Wood, 1998). However, it was initially observed, in 1991, by Thompson et al., that compounds that resemble the substrates of firefly luciferase (FLuc) can act as competitive inhibitors of the enzyme, and that these compounds, upon interaction with luciferase in the cell, can actually stabilize the protein and increase its half-life. […]
These assay plates were then treated with 23nL of compound or DMSO using a Kalypsys pin tool, which allows for delivery of a 6-point interplate titration of each compound to the assay plate (quantitative HTS.) 1 uL of firefly luciferase mix (containing 50 mM Tris acetate, pH 7.6, 0.04 uM P. pyralis luciferase, 0.01% Tween, 0.05% BSA and dH2O) was then delivered by FRD to each well. Luciferase activity was then measured using a ViewLux CCD imager.

[3] = target: Voltage-gated inwardly rectifying potassium channel KCNH2 (Homo sapiens) (UniProt Q12809); assay: Human Ether-a-go-go-Related Gene (hERG) channel small molecule antagonists: fluorescence cell-based qHTS assay (AID 1671200); details: hERG-U2OS cells, FluxOR thallium flux fluorescence; note: potency is the fitted concentration of half-maximal effect; nearly all actives have a fitted effect of over 50% in size
In short: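 Measured: Tl+ flux via fluorescence (480/540 nm) in hERG-expressing U2OS cells after 1 h dye loading at room temperature.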

Which activation ([1]; at 61 µM (top of the series)) does the source give for CCCN[C@H]1CCc2nc(N)sc2C1 here?
The activation was inactive: 0.0418%.

What does the source list for O=c1c(O)c(-c2ccc(O)c(O)c2)oc2cc(O)cc(O)c12?
activation ([1]; at 61 µM (top of the series)): inactive: -0.104%; activation ([1]; at 78.8 µM (top of the series)): inactive: 1.21%

Which Potency [2] does the source give for CN(C)c1ccc(C(=C2C=CC(=[N+](C)C)C=C2)c2ccccc2)cc1 here?
Its Potency is active: 27.5 µM [middle of 4 runs].

Which Potency [3] does the source give for O=C1Cc2cc(CCN3CCN(c4nsc5ccccc45)CC3)c(Cl)cc2N1 here?
The Potency was active: 4.77 µM.
